Measurements published in patent US8222202B2 (priority 2006, dated 2012).

Protein sequences, listed by entry. Tags and fused reporters are not part of them.
UniProt P37288, whole entry: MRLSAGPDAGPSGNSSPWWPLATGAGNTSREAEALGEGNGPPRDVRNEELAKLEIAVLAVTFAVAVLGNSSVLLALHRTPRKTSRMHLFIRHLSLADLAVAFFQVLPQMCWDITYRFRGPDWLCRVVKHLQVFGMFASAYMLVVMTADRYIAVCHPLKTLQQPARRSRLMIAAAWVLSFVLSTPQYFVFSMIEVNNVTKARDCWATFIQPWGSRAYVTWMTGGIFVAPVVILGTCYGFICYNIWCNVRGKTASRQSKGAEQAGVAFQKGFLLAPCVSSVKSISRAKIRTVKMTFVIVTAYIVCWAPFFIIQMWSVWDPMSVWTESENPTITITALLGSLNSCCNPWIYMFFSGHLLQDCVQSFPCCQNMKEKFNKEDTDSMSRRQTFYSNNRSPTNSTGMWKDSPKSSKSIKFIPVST

Target: T1, hV1a receptor (Homo sapiens, UniProt P37288)
T1 construct: expressed in transfected cells; host or cells: HEK-293
Test: hV1a receptor transcriptional reporter (luciferase) agonist assay
Format: cell-based
Conditions: HEK-293 cells transiently transfected with hV1a receptor, 5 hours exposure, geometric mean
Method: Agonist activity of compounds on the hV1a receptor was determined in a transcriptional reporter assay by transiently transfecting a hV1a receptor expression DNA into HEK-293 cells in concert with a reporter DNA containing intracellular calcium responsive promoter elements regulating expression of firefly luciferase. See Boss, V., Talpade, D. J., Murphy, T. J. J. Biol. Chem. 1996, May 3; 271(18), 10429-10432 for further guidance on this assay. […] To determine selectivity, compounds were tested in luciferase-based transcriptional reporter assays expressing the human oxytocin (hOT) receptor. Assays for other receptors (hV2, hV1b, rat V1a and rat V2) were also conducted.
The EC50 value given is the geometric mean expressed in nanomol/L (nM). Selectivity values are given as EC50 ratios.

Question: For “[Phe2,Orn8]OT [[Phe2, Orn8]OT, reference compound]”, which EC50 is on record?
Answer: The EC50 was 0.15 nM.
